Measurements published in patent US20220144895A1, “DE NOVO DESIGN OF TUNABLE PH-DRIVEN CONFORMATIONAL SWITCHES” (University of Washington, priority 2019, published 2022).

Format: physicochemical
Text: Plasmids containing synthetic genes that encode the designed proteins were ordered through Genscript, Inc. (Piscataway, N.J., USA), cloned into the NdeI and XhoI sites of either pET2I-NESG or pET-28b vectors (see table 3). Plasmids were transformed into chemically competent E. coli expression strains BL21(DE3) Star (Invitrogen) or Lemo™21(DE3) (New England Biolabs). Following transformation, single colonies were picked from agar plates and grown overnight in 5 m starter cultures of Luria-Bertani (LB) medium containing 50 μg/mL carbenicillin (for pET21-NESG vectors) or kanamycin (for pET-28b vectors) with shaking at 225 rpm for 12-18 hours at 37° C. 5 ml starter cultures were added to 500 ml TBM-3052 with antibiotic for expression by autoinduction; cells were grown at 37° C. for 4-7 hours and temperature was dropped to 18° C. overnight. After 18-24 hours, cells were harvested by centrifugation for 15 minutes at 5000 ref at 4° C. and resuspended in 20 ml lysis buffer (25 mM Tris pH 8.0 at room temperature, 300 mM NaCl, 20 mM Imidazole).
Cells were lysed by microfluidization in the presence of 1 mM PMSF. Lysates were clarified by centrifugation at 24,000 ref at 4° C. for at least 30 minutes. Proteins were purified by Immobilized metal affinity chromatography (IMAC): supernatant was applied to Ni-NTA (Qiagen) columns pre-equilibrated in lysis buffer. […]

B1: pRO-2-noHis: pRO-2 variant lacking histidine networks, inactive control, SEQ ID NO: 75-76 (protein)
chain: GSEYEIRKALEELKASTAELKRSTASLRASTEELKKNPSEDALVENNRLIVENNAIIVENNRIIAAVLELIVRAIK
solubility / behaviour in solution: well-behaved in solution
